Counter-ions that a name gives are not always drawn.

Data set [1] relates to primary mouse embryonic fibroblasts (MEF). As to the kind of experiment: ROS production in MEF (CM-H2DCFDA). Type of data set: cell-based. The note with it: drug alone (L-methamphetamine and 4-hydroxy-D-methamphetamine at 1 mM).
Data set [2] has the same test system. Type of data set: cell-based. To be noted: NF-κB inhibitors with methamphetamine.

`CN[C@@H](C)Cc1ccc(O)cc1`: the ROS formation entry in data set [1] was “little or no effect”.

Turning to `CN[C@@H](C)Cc1ccccc1` [methamphetamine, S(+)-methylamphetamine HCl], the ROS formation entry in data set [1] is recorded as “concentration-dependent increase”. Take `Cc1ccc(NCCCc2ccccc2)c(N)c1` [JSH-23]: in data set [2], the “effect of methamphetamine on de novo ceramide (d18:1/16:0) biosynthesis” value was “able to inhibit”. With `CN[C@@H](C)Cc1ccccc1.Cl` [L-methamphetamine, L-methamphetamine hydrochloride], in data set [1], the ROS formation result was “little or no effect”. Regarding `Nc1ccc(O)c(C(=O)O)c1` [5′-aminosalicyclic acid], in data set [2], the “effect of methamphetamine on de novo ceramide (d18:1/16:0) biosynthesis” value is listed as “able to inhibit”. The same measure, in the same setting: the result for `O=C1CCC(N2C(=O)c3ccccc3C2=O)C(=O)N1` (stereo not drawn) [thalidomide] reads “able to inhibit”.

The values are drawn from US20150148387A1, “METHODS OF TREATMENT, DIAGNOSIS AND […] METHA[…] WHICH TARGET CERAMIDE METABOLIC […] AND […] SENESCENCE” (priority 2012, published 2015).
